The values that follow are results of earlier work, collected in patent US9901650B2, “Methods for evaluating brain-wide paravascular pathway for waste clearance function and methods for treating neurodegenerative disorders based thereon” (University of Rochester, priority 2013, dated 2018).

The conditions of the data set: injected into the CSF; cited from earlier work.

For “albumin: protein, molecular size 66.5 kD, literature CSF tracer”, the “proportion draining to the cervical lymphatics via the cribriform plate” value is ~50%.
